This test deals with Voltage-gated L-type calcium channel (Homo sapiens, UniProt Q13936+Q13698+Q01668+O60840). Nature of the test: Inhibition of Cav1.2 current measured using QPatch automatic path clamp system in CHO cells expressing Cav1.2, beta-2 and alpha-2/delta-1 subunits. Further details: ca sol conc 1.8 mM, temp Ambient. The test is classed as functional, cell-based, Cricetulus griseus.

Sequences of proteins named here, by UniProt entry; tags and fusion partners are left off. A change or cut given only in a name is not applied to a line headed by its entry.
UniProt Q13936: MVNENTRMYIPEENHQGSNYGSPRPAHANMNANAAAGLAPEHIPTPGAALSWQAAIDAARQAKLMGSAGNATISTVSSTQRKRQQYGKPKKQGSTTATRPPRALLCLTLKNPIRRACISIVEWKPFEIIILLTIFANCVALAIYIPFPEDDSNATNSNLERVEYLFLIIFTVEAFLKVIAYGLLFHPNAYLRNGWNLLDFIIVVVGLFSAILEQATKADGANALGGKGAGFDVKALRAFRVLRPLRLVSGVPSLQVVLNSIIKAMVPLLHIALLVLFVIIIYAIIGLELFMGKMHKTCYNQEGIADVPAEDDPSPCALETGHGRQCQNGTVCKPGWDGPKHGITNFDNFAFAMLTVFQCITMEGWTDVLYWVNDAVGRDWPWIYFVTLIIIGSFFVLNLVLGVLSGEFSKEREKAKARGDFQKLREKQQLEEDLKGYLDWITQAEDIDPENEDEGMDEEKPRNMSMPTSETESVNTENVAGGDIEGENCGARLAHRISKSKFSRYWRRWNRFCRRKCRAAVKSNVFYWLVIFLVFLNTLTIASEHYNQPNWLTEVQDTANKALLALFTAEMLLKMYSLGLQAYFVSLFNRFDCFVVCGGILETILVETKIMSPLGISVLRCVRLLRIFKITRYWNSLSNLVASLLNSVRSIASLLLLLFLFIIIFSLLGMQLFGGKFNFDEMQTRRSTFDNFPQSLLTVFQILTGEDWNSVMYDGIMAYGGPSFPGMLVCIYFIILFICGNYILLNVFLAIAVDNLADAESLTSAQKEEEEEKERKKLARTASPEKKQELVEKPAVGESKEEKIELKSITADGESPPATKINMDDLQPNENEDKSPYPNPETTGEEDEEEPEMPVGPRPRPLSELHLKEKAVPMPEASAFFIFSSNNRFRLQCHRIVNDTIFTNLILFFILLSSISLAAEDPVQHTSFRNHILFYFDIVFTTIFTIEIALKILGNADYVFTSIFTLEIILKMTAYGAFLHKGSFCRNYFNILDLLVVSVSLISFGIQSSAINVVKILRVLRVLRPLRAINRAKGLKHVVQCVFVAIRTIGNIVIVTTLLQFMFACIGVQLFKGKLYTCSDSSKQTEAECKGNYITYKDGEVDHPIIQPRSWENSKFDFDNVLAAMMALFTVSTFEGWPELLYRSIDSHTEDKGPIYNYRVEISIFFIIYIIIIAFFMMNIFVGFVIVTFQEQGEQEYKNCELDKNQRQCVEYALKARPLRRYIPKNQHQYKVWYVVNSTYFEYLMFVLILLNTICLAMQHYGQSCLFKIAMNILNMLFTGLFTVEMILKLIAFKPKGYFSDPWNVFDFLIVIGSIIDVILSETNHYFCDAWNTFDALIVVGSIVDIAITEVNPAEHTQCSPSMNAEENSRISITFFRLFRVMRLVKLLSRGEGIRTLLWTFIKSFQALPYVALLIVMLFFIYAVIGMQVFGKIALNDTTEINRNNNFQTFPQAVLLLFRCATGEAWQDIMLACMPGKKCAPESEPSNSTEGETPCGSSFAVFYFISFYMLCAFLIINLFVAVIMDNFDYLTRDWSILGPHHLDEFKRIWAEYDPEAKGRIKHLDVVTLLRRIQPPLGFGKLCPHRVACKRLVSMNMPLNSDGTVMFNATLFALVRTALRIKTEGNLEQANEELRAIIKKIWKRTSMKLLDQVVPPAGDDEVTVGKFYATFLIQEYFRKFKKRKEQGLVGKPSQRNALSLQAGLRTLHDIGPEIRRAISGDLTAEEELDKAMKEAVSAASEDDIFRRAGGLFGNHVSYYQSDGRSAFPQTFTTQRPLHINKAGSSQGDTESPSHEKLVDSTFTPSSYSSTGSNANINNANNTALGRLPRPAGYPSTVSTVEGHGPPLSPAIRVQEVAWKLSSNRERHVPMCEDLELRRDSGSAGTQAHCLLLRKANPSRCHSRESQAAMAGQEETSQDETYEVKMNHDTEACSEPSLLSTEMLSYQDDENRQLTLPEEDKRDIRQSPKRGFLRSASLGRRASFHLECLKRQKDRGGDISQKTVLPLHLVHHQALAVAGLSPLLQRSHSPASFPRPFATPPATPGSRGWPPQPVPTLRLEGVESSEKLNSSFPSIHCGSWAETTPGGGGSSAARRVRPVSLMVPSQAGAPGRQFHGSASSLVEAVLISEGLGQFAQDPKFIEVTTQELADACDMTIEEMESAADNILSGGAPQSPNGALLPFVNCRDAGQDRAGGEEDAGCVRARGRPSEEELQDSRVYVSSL
UniProt Q13698: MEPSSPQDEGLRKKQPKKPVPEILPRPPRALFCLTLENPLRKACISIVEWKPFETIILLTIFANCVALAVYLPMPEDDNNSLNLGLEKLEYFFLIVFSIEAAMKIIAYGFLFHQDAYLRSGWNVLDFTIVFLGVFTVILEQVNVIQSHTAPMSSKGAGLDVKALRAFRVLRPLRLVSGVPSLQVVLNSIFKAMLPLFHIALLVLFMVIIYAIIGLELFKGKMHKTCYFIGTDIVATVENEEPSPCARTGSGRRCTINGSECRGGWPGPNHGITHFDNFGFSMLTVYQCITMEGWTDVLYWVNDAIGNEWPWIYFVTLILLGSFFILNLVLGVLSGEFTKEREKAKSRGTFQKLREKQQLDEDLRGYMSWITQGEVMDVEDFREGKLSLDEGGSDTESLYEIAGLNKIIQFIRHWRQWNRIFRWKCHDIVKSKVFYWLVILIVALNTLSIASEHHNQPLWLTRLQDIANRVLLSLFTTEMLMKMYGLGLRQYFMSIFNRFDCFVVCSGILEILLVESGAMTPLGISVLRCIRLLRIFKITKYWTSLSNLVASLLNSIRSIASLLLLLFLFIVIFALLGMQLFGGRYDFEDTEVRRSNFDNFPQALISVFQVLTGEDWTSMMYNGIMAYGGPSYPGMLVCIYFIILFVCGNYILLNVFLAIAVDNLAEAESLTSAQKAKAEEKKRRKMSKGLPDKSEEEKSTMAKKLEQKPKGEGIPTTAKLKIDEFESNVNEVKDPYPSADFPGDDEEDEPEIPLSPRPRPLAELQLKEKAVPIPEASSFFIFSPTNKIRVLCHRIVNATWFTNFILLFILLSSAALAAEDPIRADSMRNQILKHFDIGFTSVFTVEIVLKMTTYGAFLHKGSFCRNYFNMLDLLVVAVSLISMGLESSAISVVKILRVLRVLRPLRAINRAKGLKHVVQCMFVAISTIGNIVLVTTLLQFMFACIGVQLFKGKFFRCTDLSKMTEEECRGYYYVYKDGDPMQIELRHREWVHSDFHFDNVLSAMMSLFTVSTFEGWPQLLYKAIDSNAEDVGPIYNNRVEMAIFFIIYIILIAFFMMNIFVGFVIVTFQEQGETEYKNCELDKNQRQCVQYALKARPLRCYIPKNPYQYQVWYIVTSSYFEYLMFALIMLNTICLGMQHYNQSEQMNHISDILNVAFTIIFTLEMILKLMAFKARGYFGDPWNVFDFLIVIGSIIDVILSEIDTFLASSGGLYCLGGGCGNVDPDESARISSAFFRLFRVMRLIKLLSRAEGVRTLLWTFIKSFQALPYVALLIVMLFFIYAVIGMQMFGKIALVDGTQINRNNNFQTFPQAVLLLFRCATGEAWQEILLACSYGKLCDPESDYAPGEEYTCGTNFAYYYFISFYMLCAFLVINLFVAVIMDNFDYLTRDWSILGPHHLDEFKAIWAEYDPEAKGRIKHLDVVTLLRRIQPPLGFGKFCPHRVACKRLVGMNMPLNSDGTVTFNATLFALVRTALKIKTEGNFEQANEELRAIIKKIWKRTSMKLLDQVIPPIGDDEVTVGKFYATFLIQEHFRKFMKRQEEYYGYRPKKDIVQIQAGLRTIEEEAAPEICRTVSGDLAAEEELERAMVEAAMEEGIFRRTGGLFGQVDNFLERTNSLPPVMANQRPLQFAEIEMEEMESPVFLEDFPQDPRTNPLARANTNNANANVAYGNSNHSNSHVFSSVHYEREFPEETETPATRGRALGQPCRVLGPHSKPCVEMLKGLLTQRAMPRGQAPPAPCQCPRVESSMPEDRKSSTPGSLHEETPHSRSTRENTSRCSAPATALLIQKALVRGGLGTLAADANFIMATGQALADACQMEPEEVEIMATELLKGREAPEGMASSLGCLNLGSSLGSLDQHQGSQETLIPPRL
UniProt Q01668: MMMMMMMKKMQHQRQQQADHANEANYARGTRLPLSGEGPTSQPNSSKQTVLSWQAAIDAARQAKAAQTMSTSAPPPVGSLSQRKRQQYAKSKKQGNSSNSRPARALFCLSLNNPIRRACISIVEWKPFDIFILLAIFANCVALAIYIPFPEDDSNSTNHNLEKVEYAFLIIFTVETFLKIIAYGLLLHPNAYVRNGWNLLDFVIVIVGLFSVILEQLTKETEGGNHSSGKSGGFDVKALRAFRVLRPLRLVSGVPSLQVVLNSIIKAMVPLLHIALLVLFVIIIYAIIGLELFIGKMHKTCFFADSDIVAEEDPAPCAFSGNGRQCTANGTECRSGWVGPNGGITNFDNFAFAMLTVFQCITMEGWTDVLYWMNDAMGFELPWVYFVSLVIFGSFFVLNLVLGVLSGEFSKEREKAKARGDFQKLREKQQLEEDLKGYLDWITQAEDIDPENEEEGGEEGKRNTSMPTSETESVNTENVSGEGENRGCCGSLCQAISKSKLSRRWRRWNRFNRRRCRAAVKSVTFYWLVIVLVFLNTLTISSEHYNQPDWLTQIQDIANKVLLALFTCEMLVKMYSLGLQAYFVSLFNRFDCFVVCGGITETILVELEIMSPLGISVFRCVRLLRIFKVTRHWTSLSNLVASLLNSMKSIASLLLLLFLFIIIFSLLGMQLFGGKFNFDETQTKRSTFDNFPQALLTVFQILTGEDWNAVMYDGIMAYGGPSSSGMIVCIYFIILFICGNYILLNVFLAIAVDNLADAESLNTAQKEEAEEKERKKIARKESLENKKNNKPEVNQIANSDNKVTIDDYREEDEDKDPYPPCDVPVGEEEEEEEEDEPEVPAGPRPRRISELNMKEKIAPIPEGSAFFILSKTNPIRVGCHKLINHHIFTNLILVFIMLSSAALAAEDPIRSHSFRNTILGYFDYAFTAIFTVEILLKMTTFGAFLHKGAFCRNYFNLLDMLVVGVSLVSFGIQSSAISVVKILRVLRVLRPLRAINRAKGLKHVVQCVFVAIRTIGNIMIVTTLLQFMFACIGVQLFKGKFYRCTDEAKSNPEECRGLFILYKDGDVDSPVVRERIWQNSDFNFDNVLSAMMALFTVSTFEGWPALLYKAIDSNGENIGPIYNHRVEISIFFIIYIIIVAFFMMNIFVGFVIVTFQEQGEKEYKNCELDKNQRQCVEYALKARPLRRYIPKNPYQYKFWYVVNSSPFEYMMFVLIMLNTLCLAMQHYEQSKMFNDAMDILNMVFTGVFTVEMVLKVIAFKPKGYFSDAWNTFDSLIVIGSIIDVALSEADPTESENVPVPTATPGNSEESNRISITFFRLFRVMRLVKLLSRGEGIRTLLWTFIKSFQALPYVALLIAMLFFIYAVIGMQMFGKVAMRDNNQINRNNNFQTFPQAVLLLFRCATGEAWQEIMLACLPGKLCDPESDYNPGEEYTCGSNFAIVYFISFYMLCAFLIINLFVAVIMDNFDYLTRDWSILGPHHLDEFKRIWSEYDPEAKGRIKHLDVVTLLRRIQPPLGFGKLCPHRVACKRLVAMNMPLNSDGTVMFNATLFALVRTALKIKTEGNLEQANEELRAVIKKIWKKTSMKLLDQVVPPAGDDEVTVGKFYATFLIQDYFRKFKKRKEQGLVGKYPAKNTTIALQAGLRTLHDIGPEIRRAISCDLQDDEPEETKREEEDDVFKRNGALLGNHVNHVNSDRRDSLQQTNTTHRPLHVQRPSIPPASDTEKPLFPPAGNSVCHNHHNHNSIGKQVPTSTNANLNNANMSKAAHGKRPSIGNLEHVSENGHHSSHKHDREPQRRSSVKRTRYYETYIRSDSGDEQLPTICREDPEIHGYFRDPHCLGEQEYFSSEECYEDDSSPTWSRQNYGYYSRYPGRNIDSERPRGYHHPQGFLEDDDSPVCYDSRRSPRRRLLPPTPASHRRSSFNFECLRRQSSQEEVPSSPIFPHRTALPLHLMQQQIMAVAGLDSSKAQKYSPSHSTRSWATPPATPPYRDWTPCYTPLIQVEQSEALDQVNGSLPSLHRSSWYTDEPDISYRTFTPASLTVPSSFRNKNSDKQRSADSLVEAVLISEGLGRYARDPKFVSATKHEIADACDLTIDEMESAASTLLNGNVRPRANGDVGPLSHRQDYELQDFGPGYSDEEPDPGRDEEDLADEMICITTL

For the molecule `CC(C)COCC(CN(Cc1ccccc1)c1ccccc1)N1CCCC1` (stereo unspecified) [BEPRIDIL], the IC50 came to 1000 nM.

For the origin of these results see ChEMBL document CHEMBL3436045 (Sci Rep, 2013).
